# Legend:
# [1] = target: T1, N-terminal Nano Luciferase/GAK fusion (NL-GAK) in HEK293 cells (Homo sapiens, UniProt O14976); experiment: GAK nanoBRET cellular target engagement assay; details: relative to 49
# T1 sequence (O14976 1-1311): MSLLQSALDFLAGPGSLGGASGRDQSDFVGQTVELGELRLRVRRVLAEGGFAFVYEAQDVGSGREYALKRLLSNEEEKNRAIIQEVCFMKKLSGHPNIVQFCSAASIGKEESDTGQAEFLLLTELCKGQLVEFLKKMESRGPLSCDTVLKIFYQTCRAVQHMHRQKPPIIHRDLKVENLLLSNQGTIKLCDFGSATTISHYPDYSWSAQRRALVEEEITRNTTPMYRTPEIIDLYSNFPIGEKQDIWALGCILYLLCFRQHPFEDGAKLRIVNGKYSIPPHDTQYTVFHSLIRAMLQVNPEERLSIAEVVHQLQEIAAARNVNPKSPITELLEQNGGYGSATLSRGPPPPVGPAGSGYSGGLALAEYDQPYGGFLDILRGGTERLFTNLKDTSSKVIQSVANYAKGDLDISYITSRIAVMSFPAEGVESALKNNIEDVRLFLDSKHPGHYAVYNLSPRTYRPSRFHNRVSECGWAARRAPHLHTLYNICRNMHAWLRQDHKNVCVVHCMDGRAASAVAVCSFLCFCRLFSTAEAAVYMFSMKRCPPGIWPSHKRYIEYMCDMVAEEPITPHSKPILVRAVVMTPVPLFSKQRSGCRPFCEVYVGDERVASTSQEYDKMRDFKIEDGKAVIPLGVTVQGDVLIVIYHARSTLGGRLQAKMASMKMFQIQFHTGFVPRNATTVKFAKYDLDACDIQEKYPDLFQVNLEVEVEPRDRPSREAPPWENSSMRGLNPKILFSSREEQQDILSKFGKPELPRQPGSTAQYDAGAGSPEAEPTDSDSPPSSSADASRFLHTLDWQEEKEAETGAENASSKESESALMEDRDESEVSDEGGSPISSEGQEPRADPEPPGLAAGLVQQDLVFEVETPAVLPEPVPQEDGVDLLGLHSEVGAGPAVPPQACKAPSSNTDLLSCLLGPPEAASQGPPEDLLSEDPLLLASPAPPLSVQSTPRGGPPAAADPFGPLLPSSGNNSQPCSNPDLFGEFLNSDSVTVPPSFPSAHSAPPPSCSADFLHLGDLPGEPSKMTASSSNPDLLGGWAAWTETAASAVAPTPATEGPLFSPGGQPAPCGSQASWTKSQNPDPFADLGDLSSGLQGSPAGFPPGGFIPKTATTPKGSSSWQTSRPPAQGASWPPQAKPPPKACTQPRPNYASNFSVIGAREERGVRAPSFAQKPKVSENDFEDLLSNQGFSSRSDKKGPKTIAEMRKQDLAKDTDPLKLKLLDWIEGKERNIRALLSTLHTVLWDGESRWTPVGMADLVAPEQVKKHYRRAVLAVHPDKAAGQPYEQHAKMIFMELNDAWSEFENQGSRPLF
# [2] = target: T2, GAK kinase domain (12-347) (Homo sapiens, UniProt O14976); experiment: TR-FRET ligand binding displacement assay, GAK
# T2 sequence (O14976 12-347): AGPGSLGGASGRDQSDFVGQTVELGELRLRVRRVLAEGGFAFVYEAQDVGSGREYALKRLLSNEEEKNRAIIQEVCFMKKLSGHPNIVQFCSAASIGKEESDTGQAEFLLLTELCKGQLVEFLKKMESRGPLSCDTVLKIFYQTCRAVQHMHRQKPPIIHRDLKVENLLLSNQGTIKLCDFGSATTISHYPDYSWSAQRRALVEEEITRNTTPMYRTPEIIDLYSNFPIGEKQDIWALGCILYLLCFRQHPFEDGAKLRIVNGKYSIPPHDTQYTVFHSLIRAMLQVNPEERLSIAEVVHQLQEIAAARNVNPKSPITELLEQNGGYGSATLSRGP
substance,measurement,setting,value
"6,7-Dimethoxy-N-(3,4,5-trimethoxyphenyl)quinolin-4-amine [Compound 57]",fold drop in cellular GAK potency,[1],13 fold
same,NAK selectivity (ratio of GAK Ki and Ki of nearest NAK family member),[2],5300
